Sequences of proteins named here, by UniProt entry; tags and fusion partners are left off. A change or cut given only in a name is not applied to a line headed by its entry.
UniProt P22411: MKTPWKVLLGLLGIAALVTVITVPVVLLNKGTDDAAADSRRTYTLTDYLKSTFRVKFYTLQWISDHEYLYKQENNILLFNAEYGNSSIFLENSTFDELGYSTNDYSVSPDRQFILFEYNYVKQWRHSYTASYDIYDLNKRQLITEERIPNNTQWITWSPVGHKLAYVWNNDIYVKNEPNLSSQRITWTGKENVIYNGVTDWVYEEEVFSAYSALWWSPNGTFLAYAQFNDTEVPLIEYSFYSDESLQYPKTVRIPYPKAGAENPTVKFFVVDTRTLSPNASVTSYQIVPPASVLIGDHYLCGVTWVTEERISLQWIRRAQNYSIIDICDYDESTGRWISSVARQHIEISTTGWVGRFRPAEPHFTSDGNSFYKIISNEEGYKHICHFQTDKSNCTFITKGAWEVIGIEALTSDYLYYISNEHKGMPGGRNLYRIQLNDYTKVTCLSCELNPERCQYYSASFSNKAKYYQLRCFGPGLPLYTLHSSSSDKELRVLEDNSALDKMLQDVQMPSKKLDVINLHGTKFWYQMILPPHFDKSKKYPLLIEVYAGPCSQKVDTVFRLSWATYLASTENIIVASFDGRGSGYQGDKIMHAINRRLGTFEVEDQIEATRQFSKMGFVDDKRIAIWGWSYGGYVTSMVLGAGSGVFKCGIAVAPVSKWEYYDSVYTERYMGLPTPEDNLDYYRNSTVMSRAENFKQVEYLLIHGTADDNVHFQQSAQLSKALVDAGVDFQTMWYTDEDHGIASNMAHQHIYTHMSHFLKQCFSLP

According to PMC7143835, “Anti-Hyperglycemic Effects of Green Crab Hydrolysates Derived by Commercially Available Enzymes” (Foods, 2020):

Target: T1, porcine kidney dipeptidyl peptidase-IV (DPP-IV) (Sus scrofa, UniProt P22411)
T1 construct: gene DPP4
Experiment: biochemical

With N[C@@H](CC(=O)N1CCn2c(nnc2C(F)(F)F)C1)Cc1cc(F)c(F)cc1F [sitagliptin] as the compound, how does the IC50 read?
Its IC50 is 107 nM.
